{"source": "patent US20160169850A1", "about": "“SENSOR MOLECULE” (University of Malta, priority 2014, published 2016)", "key": {"[1]": {"conditions": "1:1 methanol:water, excess Fe(III), emission at 525 nm"}, "[2]": {"test": "not given", "remark": "listed apart in the source"}, "[3]": {"conditions": "1:1 methanol:water, excitation 399 nm"}, "[4]": {"conditions": "1:1 MeOH/H2O with 25 mM methanesulfonic acid"}, "[5]": {"conditions": "MeOH with 25 mM methanesulfonic acid"}}, "note": "Several values for one entry are separate records, joined by “and”; a condition that tells them apart may be missing. Equal values may be shown once. Read-outs that look alike come from different tables or passages of the source.", "data": [{"substance": "N-ferrocenyl-4-methylpiperazine-1,8-naphthalimide [Compound 5]", "values": [{"measurement": "Output emission (ΦF), quantum yield", "setting": "Condition A: no inputs, 1:1 methanol:water, 3×10^−6 M", "value": 0.0003}, {"measurement": "Output emission (ΦF), quantum yield", "setting": "Condition B: 0.2 mM H^+ only, 1:1 methanol:water", "value": 0.0050}, {"measurement": "Output emission (ΦF), quantum yield", "setting": "Condition C: 10 μM Fe(III) only, 1:1 methanol:water", "value": 0.0015}, {"measurement": "Output emission (ΦF), quantum yield, 'on' state", "setting": "Condition D: 0.2 mM H^+ and 10 μM Fe(III), 1:1 methanol:water", "value": "0.096 and 0.10"}, {"measurement": "Quantum Yield (ΦF)", "setting": "MeOH:H2O (1:1)", "value": 0.096}, {"measurement": "pKa of protonated tertiary amine (proton receptor)", "setting": "[1]", "value": 6.6}, {"measurement": "isosbestic point wavelength", "setting": "[2]; 1:1 (v/v) methanol:water, pH 2-10", "value": 399, "unit": "nm"}, {"measurement": "Molar extinction coefficient (ε)", "setting": "[2]; 1:1 MeOH/H2O", "value": 12000, "unit": "L/mol/cm"}, {"measurement": "λmax", "setting": "[2]; 1:1 MeOH/H2O", "value": 390, "unit": "nm"}, {"measurement": "Molar extinction coefficient (ε)", "setting": "[2]; [4]", "value": 12900, "unit": "L/mol/cm"}, {"measurement": "λmax", "setting": "[2]; [4]", "value": 386, "unit": "nm"}, {"measurement": "Molar extinction coefficient (ε)", "setting": "[2]; [5]", "value": 13100, "unit": "L/mol/cm"}, {"measurement": "λmax", "setting": "[2]; [5]", "value": 378, "unit": "nm"}, {"measurement": "Absorbance (maximum wavelength)", "setting": "[2]; MeOH:H2O (1:1)", "value": 399, "unit": "nm"}, {"measurement": "Molar Extinction Coefficient", "setting": "[2]; MeOH:H2O (1:1)", "value": 12000, "unit": "L/cm/mol"}, {"measurement": "Molar extinction coefficient (ε)", "setting": "[2]; MeOH, 1 × 10^−5 M compound", "value": 12700, "unit": "L/mol/cm"}, {"measurement": "λmax", "setting": "[2]; MeOH, 1 × 10^−5 M compound", "value": 399, "unit": "nm"}, {"measurement": "fluorescence emission maximum (λmax)", "setting": "[3]", "value": 525, "unit": "nm"}]}]}
